This note sets out measurements from ChEMBL document CHEMBL1130571, “Synthesis and evaluation of novel-N-[2-(bis-aryl-methoxy)ethyl-N-aralkyl-,-alkanediamines as potent and selective dopamine reuptake inhibitors: Seco analogs of GBR12935 and GBR12909” (Bioorg Med Chem Lett, 1997).

Protein sequences, listed by entry. Tags and fused reporters are not part of them.
UniProt P31652, whole entry: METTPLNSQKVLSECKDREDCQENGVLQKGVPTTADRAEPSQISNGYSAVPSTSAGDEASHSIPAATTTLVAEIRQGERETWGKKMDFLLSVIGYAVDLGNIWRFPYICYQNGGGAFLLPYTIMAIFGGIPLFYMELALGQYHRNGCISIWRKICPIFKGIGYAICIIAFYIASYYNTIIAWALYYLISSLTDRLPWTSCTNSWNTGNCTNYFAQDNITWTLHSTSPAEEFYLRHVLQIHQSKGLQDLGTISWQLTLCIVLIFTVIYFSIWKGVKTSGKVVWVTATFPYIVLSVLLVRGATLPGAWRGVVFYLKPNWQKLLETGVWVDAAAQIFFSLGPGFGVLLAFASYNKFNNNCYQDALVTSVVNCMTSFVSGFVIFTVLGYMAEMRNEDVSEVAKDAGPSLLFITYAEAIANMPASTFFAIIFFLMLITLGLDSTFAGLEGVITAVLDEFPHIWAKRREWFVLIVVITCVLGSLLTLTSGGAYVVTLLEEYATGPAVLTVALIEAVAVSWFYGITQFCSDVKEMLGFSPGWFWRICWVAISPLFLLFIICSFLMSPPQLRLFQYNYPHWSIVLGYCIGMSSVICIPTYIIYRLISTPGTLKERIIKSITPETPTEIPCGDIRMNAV

This experiment addresses Sodium-dependent serotonin transporter (Rattus norvegicus, UniProt P31652). Put plainly: Compound was tested for its ability to inhibit the neurotransmitter serotonin-5-HT reuptake system using [3H]5-HT as radioligand.

The term IC50 denotes the concentration that inhibits the measured activity by half. Read a high IC50 as weaker potency in that assay. For the compound `Fc1ccc(C(OCCN2CCN(CCCc3ccccc3)CC2)c2ccc(F)cc2)cc1` [VANOXERINE], the IC50 came to 70 nM.
